Chains of the proteins cited; added tags and fusions are not shown.
UniProt P30542, whole entry: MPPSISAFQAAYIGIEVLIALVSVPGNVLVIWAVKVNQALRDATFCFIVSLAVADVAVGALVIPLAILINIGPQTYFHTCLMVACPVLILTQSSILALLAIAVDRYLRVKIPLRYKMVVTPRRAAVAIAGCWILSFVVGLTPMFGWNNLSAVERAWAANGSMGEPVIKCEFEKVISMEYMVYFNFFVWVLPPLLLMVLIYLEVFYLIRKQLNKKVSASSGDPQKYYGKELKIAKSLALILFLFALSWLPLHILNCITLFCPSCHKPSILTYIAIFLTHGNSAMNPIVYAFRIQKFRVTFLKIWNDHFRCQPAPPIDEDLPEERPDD
UniProt P0DMS8, whole entry: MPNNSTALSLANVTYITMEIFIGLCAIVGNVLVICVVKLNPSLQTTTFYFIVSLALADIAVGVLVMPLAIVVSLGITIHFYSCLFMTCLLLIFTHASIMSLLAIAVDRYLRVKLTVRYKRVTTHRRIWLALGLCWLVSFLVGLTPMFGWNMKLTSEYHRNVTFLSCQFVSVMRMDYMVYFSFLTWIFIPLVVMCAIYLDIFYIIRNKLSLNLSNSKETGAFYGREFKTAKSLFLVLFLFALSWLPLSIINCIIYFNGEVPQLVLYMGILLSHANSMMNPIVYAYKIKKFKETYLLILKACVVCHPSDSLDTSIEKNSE

These compounds were tested against human A1 adenosine receptor (Homo sapiens (Human), UniProt P30542) (assay: biochemical).
With `O[C@@H]1[C@H](O)CS[C@H]1c1nnc2c(NCc3ccc(Cl)cc3)nccn12` [Compound 48, (2S,3R,4S)-2-(8-((4-chlorobenzyl)amino)-[1,2,4]triazolo[4,3-a]pyrazin-3-yl)tetrahydrothiophene-3,4-diol] the Ki was over 10000 nM. For `O[C@@H]1[C@H](O)CS[C@H]1c1nnc2c(NCc3ccccc3Cl)nccn12` [Compound 47, (2S,3R,4S)-2-(8-((2-chlorobenzyl)amino)-[1,2,4]triazolo[4,3-a]pyrazin-3-yl)tetrahydrothiophene-3,4-diol], the Ki was over 10000 nM. `O[C@@H]1[C@H](O)CS[C@H]1c1cnc2c(NCc3ccccc3)nccn12` [Compound 120, (2S,3R,4S)-2-(8-(benzylamino)imidazo[1,2-a]pyrazin-3-yl)tetrahydrothiophene-3,4-diol] showed a Ki of over 10000 nM. With `O[C@@H]1[C@H](O)CS[C@H]1c1cnc2c(N[C@H]3C[C@@H]3c3ccccc3)nccn12` [Compound 162, (2S,3R,4S)-2-(8-(((1S,2R)-2-phenylcyclopropyl)amino)imidazo[1,2-a]pyrazin-3-yl)tetrahydrothiophene-3,4-diol] the Ki was over 10000 nM. `O=S(=O)(Nc1nccn2c([C@@H]3SC[C@@H](O)[C@H]3O)nnc12)c1cccc(Cl)c1` [Compound 34, 3-chloro-N-(3-((2S,3R,4S)-3,4-dihydroxytetrahydrothiophen-2-yl)-[1,2,4]triazolo[4,3-a]pyrazin-8-yl)benzenesulfonamide] gave a Ki of over 10000 nM. Work on `O[C@@H]1[C@H](O)CS[C@H]1c1cnc2c(NCc3cccc(C(F)(F)F)c3)nccn12` [Compound 123, (2S,3R,4S)-2-(8-((3-(trifluoromethyl)benzyl)amino)imidazo[1,2-a]pyrazin-3-yl)tetrahydrothiophene-3,4-diol] yielded a Ki of over 10000 nM. With `O[C@@H]1[C@H](O)CS[C@H]1c1nnc2c(NCc3cccc(F)c3)nccn12` [Compound 13, (2S,3R,4S)-2-(8-((3-fluorobenzyl)amino)-[1,2,4]triazolo[4,3-a]pyrazin-3-yl)tetrahydrothiophene-3,4-diol] the Ki was over 10000 nM.

Each compound was assayed against human A2a adenosine receptor (Homo sapiens (Human), UniProt P29274) (assay: biochemical).
Work on `O[C@@H]1[C@H](O)CS[C@H]1c1nnc2c(NCc3ccc(Cl)cc3)nccn12` [Compound 48, (2S,3R,4S)-2-(8-((4-chlorobenzyl)amino)-[1,2,4]triazolo[4,3-a]pyrazin-3-yl)tetrahydrothiophene-3,4-diol] yielded a Ki of over 10000 nM. `O[C@@H]1[C@H](O)CS[C@H]1c1nnc2c(NCc3ccccc3Cl)nccn12` [Compound 47, (2S,3R,4S)-2-(8-((2-chlorobenzyl)amino)-[1,2,4]triazolo[4,3-a]pyrazin-3-yl)tetrahydrothiophene-3,4-diol] showed a Ki of over 10000 nM. In the case of `O[C@@H]1[C@H](O)CS[C@H]1c1cnc2c(NCc3ccccc3)nccn12` [Compound 120, (2S,3R,4S)-2-(8-(benzylamino)imidazo[1,2-a]pyrazin-3-yl)tetrahydrothiophene-3,4-diol], the Ki is reported as over 10000 nM. Work on `O[C@@H]1[C@H](O)CS[C@H]1c1cnc2c(N[C@H]3C[C@@H]3c3ccccc3)nccn12` [Compound 162, (2S,3R,4S)-2-(8-(((1S,2R)-2-phenylcyclopropyl)amino)imidazo[1,2-a]pyrazin-3-yl)tetrahydrothiophene-3,4-diol] yielded a Ki of over 10000 nM. `O=S(=O)(Nc1nccn2c([C@@H]3SC[C@@H](O)[C@H]3O)nnc12)c1cccc(Cl)c1` [Compound 34, 3-chloro-N-(3-((2S,3R,4S)-3,4-dihydroxytetrahydrothiophen-2-yl)-[1,2,4]triazolo[4,3-a]pyrazin-8-yl)benzenesulfonamide] was tested, and the Ki was over 10000 nM. `O[C@@H]1[C@H](O)CS[C@H]1c1cnc2c(NCc3cccc(C(F)(F)F)c3)nccn12` [Compound 123, (2S,3R,4S)-2-(8-((3-(trifluoromethyl)benzyl)amino)imidazo[1,2-a]pyrazin-3-yl)tetrahydrothiophene-3,4-diol] was tested, and the Ki was over 10000 nM. `O[C@@H]1[C@H](O)CS[C@H]1c1nnc2c(NCc3cccc(F)c3)nccn12` [Compound 13, (2S,3R,4S)-2-(8-((3-fluorobenzyl)amino)-[1,2,4]triazolo[4,3-a]pyrazin-3-yl)tetrahydrothiophene-3,4-diol] gave a Ki of over 10000 nM.

The compounds below were run against human A3 receptor (Homo sapiens (Human), UniProt P0DMS8) (assay: cell-based).
For `O[C@@H]1[C@H](O)CS[C@H]1c1cnc2c(NCc3cccc(-c4nnn[nH]4)c3)nccn12` [Compound 191, (2S,3R,4S)-2-(8-((3-(1H-tetrazol-5-yl)benzyl)amino)imidazo[1,2-a]pyrazin-3-yl)tetrahydrothiophene-3,4-diol 2,2,2-trifluoroacetic acid], the IC50 was 10 to 100 nM. Work on `O[C@@H]1[C@H](O)CS[C@H]1c1nnc2c(NCc3cccc(Cl)c3)cccn12` [Compound 218, (2S,3R,4S)-2-(8-((3-chlorobenzyl)amino)-[1,2,4]triazolo[4,3-a]pyridin-3-yl)tetrahydrothiophene-3,4-diol] yielded an IC50 of 100 to 1000 nM. With `O[C@@H]1[C@H](O)CC[C@H]1c1cnc2c(NCCc3ccc(Cl)c(F)c3)nccn12` [Compound 231, (1R,2S,3S)-3-(8-((4-chloro-3-fluorophenethyl)amino)imidazo[1,2-a]pyrazin-3-yl)cyclopentane-1,2-diol] the IC50 was 10 to 100 nM. `O[C@@H]1[C@H](O)CS[C@H]1c1cnc2c(NCCc3ccc(F)cc3F)nccn12` [Compound 193, (2S,3R,4S)-2-(8-((2,4-difluorophenethyl)amino)imidazo[1,2-a]pyrazin-3-yl)tetrahydrothiophene-3,4-diol] gave an IC50 of 10 to 100 nM. `O[C@@H]1[C@H](O)CS[C@H]1c1cnc2c(NCc3cccc(Cl)c3)nc(Cl)cn12` [Compound 217, (2S,3R,4S)-2-(6-chloro-8-((3-chlorobenzyl)amino)imidazo[1,2-a]pyrazin-3-yl)tetrahydrothiophene-3,4-diol] gave an IC50 of under 10 nM. In the case of `COC(=O)c1cccc(CNc2nccn3c([C@@H]4SC[C@@H](O)[C@H]4O)cnc23)c1` [Compound 205, methyl 3-(((3-((2S,3R,4S)-3,4-dihydroxytetrahydrothiophen-2-yl)imidazo[1,2-a]pyrazin-8-yl)amino)methyl)benzoate], the IC50 is reported as 10 to 100 nM. `O[C@@H]1[C@H](O)CS[C@H]1c1cnc2c(NCc3cccc(Oc4ccccc4)c3)nccn12` [Compound 204, (2S,3R,4S)-2-(8-((3-phenoxybenzyl)amino)imidazo[1,2-a]pyrazin-3-yl)tetrahydrothiophene-3,4-diol] was tested, and the IC50 was 10 to 100 nM. In the case of `O[C@@H]1[C@H](O)CC[C@H]1c1cnc2c(NCCc3ccc(F)c(Cl)c3)nccn12` [Compound 229, (1R,2S,3S)-3-(8-((3-chloro-4-fluorophenethyl)amino)imidazo[1,2-a]pyrazin-3-yl)cyclopentane-1,2-diol], the IC50 is reported as 10 to 100 nM. Work on `O[C@@H]1[C@H](O)CC[C@H]1c1nnc2c(NCc3cc(Cl)cc(Cl)c3)nccn12` [Compound 233, (1R,2S,3S)-3-(8-((3,5-dichlorobenzyl)amino)-[1,2,4]triazolo[4,3-a]pyrazin-3-yl)cyclopentane-1,2-diol] yielded an IC50 of 10 to 100 nM. With `O[C@@H]1[C@H](O)CC[C@H]1c1nnc2c(NCCc3cccc(F)c3)nccn12` [Compound 237, (1R,2S,3S)-3-(8-((3-fluorophenethyl)amino)-[1,2,4]triazolo[4,3-a]pyrazin-3-yl)cyclopentane-1,2-diol] the IC50 was 10 to 100 nM. `O[C@@H]1[C@H](O)CC[C@H]1c1cnc2c(NCCc3cccc(F)c3)nccn12` [Compound 227, (1R,2S,3S)-3-(8-((3-fluorophenethyl)amino)imidazo[1,2-a]pyrazin-3-yl)cyclopentane-1,2-diol] gave an IC50 of over 10000 nM. Compound `O[C@@H]1[C@H](O)CS[C@H]1c1cnc2c(NCCc3cc(F)ccc3F)nccn12` [Compound 194, (2S,3R,4S)-2-(8-((2,5-difluorophenethyl)amino)imidazo[1,2-a]pyrazin-3-yl)tetrahydrothiophene-3,4-diol] has an IC50 of 10 to 100 nM. For `O[C@@H]1[C@H](O)CC[C@H]1c1cnc2c(NCCc3ccc(F)c(F)c3)nccn12` [Compound 228, (1R,2S,3S)-3-(8-((3,4-difluorophenethyl)amino)imidazo[1,2-a]pyrazin-3-yl)cyclopentane-1,2-diol], the IC50 was 10 to 100 nM. For `O[C@@H]1[C@H](O)CC[C@H]1c1nnc2c(NCCc3ccc(F)cc3)nccn12` [Compound 236, (1R,2S,3S)-3-(8-((4-fluorophenethyl)amino)-[1,2,4]triazolo[4,3-a]pyrazin-3-yl)cyclopentane-1,2-diol], the IC50 was 10 to 100 nM. Work on `O[C@@H]1[C@H](O)CS[C@H]1c1ncc2c(NCc3cccc(Cl)c3)nccn12` [Compound 219, (2S,3R,4S)-2-(8-((3-chlorobenzyl)amino)imidazo[1,5-a]pyrazin-3-yl)tetrahydrothiophene-3,4-diol] yielded an IC50 of over 10000 nM. `O[C@@H]1[C@H](O)CC[C@H]1c1nnc2c(NCc3cccc(Cl)c3)nccn12` [Compound 232, (1R,2S,3 S)-3-(8-((3-chlorobenzyl)amino)-[1,2,4]triazolo[4,3-a]pyrazin-3-yl)cyclopentane-1,2-diol] was tested, and the IC50 was over 10000 nM. `O[C@@H]1[C@H](O)CC[C@H]1c1cnc2c(NCc3cc(Cl)ccc3Cl)nccn12` [Compound 224, (1R,2S,3S)-3-(8-((2,5-dichlorobenzyl)amino)imidazo[1,2-a]pyrazin-3-yl)cyclopentane-1,2-diol] gave an IC50 of 10 to 100 nM. Work on `O[C@@H]1[C@H](O)CS[C@H]1c1cnc2c(SCc3cccc(Cl)c3)nccn12` [Compound 199, (2S,3R,4S)-2-(8-((3-chlorobenzyl)thio)imidazo[1,2-a]pyrazin-3-yl)tetrahydrothiophene-3,4-diol] yielded an IC50 of under 10 nM. `O[C@@H]1[C@H](O)CS[C@H]1c1cnc2c(NCc3cccc(C4CC4)c3)nccn12` [Compound 202, (2S,3R,4S)-2-(8-((3-cyclopropylbenzyl)amino)imidazo[1,2-a]pyrazin-3-yl)tetrahydrothiophene-3,4-diol] gave an IC50 of over 10000 nM. Work on `O[C@@H]1[C@H](O)CC[C@H]1c1cnc2c(NCc3cccc(Cl)c3)nccn12` [Compound 222, (1R,2S,3S)-3-(8-((3-chlorobenzyl)amino)imidazo[1,2-a]pyrazin-3-yl)cyclopentane-1,2-diol] yielded an IC50 of 10 to 100 nM. For `O[C@@H]1[C@H](O)CC[C@H]1c1cnc2c(NCCc3ccc(F)cc3)nccn12` [Compound 226, (1R,2S,3S)-3-(8-((4-fluorophenethyl)amino)imidazo[1,2-a]pyrazin-3-yl)cyclopentane-1,2-diol], the IC50 was 10 to 100 nM. With `O[C@@H]1[C@H](O)CC[C@H]1c1nnc2c(NCc3cc(Cl)ccc3F)nccn12` [Compound 235, (1R,2S,3S)-3-(8-((5-chloro-2-fluorobenzyl)amino)-[1,2,4]triazolo[4,3-a]pyrazin-3-yl)cyclopentane-1,2-diol] the IC50 was 10 to 100 nM. `O[C@@H]1[C@H](O)CS[C@H]1c1cnc2c(CCc3cccc(Cl)c3)nccn12` [Compound 206, (2S,3R,4S)-2-(8-(3-chlorophenethyl)imidazo[1,2-a]pyrazin-3-yl)tetrahydrothiophene-3,4-diol] showed an IC50 of over 10000 nM. `O[C@@H]1[C@H](O)CC[C@H]1c1nnc2c(NCCc3ccc(Cl)c(F)c3)nccn12` [Compound 241, (1R,2S,3S)-3-(8-((4-chloro-3-fluorophenethyl)amino)-[1,2,4]triazolo[4,3-a]pyrazin-3-yl)cyclopentane-1,2-diol] gave an IC50 of 10 to 100 nM. `O[C@@H]1[C@H](O)CS[C@H]1c1cnc2c(NCc3cc(F)cc(Cl)c3)nccn12` [Compound 201, (2S,3R,4S)-2-(8-((3-chloro-5-fluorobenzyl)amino)imidazo[1,2-a]pyrazin-3-yl)tetrahydrothiophene-3,4-diol] was tested, and the IC50 was 100 to 1000 nM. With `O[C@@H]1[C@H](O)CC[C@H]1c1cnc2c(NCc3cc(Cl)cc(Cl)c3)nccn12` [Compound 223, (1R,2S,3S)-3-(8-((3,5-dichlorobenzyl)amino)imidazo[1,2-a]pyrazin-3-yl)cyclopentane-1,2-diol] the IC50 was 10 to 100 nM. `O[C@@H]1[C@H](O)CS[C@H]1c1cnc2c(NCc3cccc(Cl)c3)cc(Cl)cn12` [Compound 220, (2S,3R,4S)-2-(6-chloro-8-((3-chlorobenzyl)amino)imidazo[1,2-a]pyridin-3-yl)tetrahydrothiophene-3,4-diol] was tested, and the IC50 was over 10000 nM. With `O[C@@H]1[C@H](O)CC[C@H]1c1nnc2c(NCc3cc(Cl)ccc3Cl)nccn12` [Compound 234, (1R,2S,3S)-3-(8-((2,5-dichlorobenzyl)amino)-[1,2,4]triazolo[4,3-a]pyrazin-3-yl)cyclopentane-1,2-diol] the IC50 was 10 to 100 nM.

From patent publication US10196396B2 (priority 2016, dated 2019)
